Test [1] concerns MCF7 cells (breast cancer cells). Briefly: In vitro anti-cancer cell experiment (MTT), MCF7. The settings on record: MCF7, text.
The subject of test [2] is human colorectal cancer cell line HT29. Kind of test: In vitro anti-cancer cell experiment (MTT), HT29. The settings on record: HT29, text.
In test [3] the test system is human lung cancer cell line NCI-H460. Kind of test: In vitro anti-cancer cell experiment (MTT), NCI-H460. The settings on record: NCI-H460, text.
Test [4] concerns human pancreatic cancer cell line Panc-1. Kind of test: In vitro anti-cancer cell experiment (MTT), Panc-1. As to conditions: Panc-1, text.

Values after ≈ are worked out from the molar mass of the structure shown.

Here are results for one compound from patent publication US20140045779A1, “COMPOUNDS CONTAINING AN ALICYCLIE STRUCTURE AND ANTI-TUMOR APPLICATION” (priority 2011, published 2014).

Turning to `BrC12CN3CC(Br)(C1)CC(Br)(C3)C2`, in test [1], the “IC50, anti-proliferative effect on MCF7 cells” value amounted to 19.26 µg/mL (≈ 51.5 µM). Also, the “IC50, anti-proliferative effect on HT29” value in test [2] turned out to be 35.62 µg/mL (≈ 95.3 µM). Also, the “IC50, anti-proliferative effect on NCI-H460 cells” value in test [3] was determined as 7.73 µg/mL (≈ 20.7 µM). The “IC50, anti-proliferative effect on Panc-1 cells” value in test [4] came out at 5.23 µg/mL (≈ 14 µM).
